{"sequences": {"note": "Sequences of proteins named here, by UniProt entry; tags and fusion partners are left off. A change or cut given only in a name is not applied to a line headed by its entry.", "UniProt Q12809": "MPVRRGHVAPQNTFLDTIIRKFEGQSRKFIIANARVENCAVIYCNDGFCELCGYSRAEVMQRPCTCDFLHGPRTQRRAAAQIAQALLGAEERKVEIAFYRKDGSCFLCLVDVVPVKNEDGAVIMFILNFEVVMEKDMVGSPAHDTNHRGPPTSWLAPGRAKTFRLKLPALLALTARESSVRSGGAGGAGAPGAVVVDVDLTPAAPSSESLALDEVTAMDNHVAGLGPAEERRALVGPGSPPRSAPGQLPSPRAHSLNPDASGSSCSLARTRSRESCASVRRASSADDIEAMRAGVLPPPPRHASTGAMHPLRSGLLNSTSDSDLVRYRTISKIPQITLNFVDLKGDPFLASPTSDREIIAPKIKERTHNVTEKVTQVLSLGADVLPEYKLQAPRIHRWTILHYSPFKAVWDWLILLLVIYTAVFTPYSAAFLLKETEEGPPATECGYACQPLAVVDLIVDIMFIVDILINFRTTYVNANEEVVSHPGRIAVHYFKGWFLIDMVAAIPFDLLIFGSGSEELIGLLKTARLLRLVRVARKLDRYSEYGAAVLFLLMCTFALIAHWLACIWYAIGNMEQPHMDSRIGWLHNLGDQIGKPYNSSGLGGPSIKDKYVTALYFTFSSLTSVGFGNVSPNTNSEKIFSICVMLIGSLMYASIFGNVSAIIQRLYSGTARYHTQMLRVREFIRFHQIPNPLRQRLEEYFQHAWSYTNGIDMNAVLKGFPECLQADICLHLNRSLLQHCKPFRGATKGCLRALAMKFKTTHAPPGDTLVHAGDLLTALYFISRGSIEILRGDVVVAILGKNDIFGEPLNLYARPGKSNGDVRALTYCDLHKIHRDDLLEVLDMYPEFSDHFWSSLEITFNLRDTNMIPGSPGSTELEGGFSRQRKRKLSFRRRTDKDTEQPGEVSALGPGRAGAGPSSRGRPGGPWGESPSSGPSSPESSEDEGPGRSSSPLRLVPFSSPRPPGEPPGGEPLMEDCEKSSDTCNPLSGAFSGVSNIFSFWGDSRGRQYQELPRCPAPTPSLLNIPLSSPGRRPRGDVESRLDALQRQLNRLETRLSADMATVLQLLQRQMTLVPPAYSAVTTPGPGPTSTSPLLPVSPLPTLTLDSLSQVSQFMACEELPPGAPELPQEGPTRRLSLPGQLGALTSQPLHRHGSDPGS"}, "source": "ChEMBL document CHEMBL1142050", "about": "“A two-state homology model of the hERG K+ channel: application to ligand binding” (Bioorg Med Chem Lett, 2005)", "molecular_target": "Voltage-gated inwardly rectifying potassium channel KCNH2 (Homo sapiens, UniProt Q12809)"}
{"molecule": "O=C1Cc2cc(CCN3CCN(c4nsc5ccccc45)CC3)c(Cl)cc2N1", "note": "[ZIPRASIDONE]", "values": [{"measurement": "IC50", "result": 151, "unit": "nM"}]}
